As usually defined, the ΔTm is the change in melting temperature against a reference sample.

The experiment addresses Bromodomain-containing protein 4 (Homo sapiens, UniProt O60885).

For the compound `CC[C@@H]1C(=O)N(C)c2cnc(Nc3ccc(C(=O)N[C@H]4CC[C@H](N5CCN(CC6CC6)CC5)CC4)cc3OC)nc2N1C(C)C` [VOLASERTIB], the ΔTm is 8.6 °C.

Source of the values: ChEMBL document CHEMBL5029173, “Differential BET Bromodomain Inhibition by Dihydropteridinone and Pyrimidodiazepinone Kinase Inhibitors” (J Med Chem, 2021).
